Reference: US20250304567A1, “PYRROLIDIONE DERIVATIVES AS INHIBITORS OF NF KAPPA B INDUCING KINASE” (priority 2022, published 2025)
pIC50: −log10 of the molar value.

Protein sequences, listed by entry. Tags and fused reporters are not part of them.
UniProt Q99558, whole entry: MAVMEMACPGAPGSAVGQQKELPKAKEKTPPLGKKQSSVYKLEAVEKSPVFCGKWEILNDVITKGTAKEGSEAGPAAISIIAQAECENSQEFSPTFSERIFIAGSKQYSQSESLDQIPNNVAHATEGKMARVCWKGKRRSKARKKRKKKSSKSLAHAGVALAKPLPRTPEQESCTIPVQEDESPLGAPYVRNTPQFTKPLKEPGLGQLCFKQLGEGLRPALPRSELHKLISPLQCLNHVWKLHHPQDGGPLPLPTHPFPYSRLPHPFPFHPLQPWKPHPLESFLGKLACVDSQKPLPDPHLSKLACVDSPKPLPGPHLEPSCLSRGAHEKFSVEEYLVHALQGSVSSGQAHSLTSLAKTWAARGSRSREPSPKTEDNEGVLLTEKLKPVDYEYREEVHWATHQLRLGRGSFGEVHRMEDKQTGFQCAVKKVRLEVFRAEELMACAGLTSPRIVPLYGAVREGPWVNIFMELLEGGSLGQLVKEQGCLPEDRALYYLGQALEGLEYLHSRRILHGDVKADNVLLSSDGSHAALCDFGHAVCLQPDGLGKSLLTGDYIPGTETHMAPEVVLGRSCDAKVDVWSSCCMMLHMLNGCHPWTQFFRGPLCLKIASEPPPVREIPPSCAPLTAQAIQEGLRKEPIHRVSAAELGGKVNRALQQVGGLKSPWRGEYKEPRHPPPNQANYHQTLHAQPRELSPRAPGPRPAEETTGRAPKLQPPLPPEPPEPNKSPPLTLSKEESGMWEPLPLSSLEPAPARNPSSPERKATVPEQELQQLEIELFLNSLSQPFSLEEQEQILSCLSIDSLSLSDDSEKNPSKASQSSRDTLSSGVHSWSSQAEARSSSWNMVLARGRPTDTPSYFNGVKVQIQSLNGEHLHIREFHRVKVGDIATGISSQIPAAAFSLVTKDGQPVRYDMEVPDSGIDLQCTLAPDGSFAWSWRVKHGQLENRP

Assays:
[1] = test system: p-IKKa levels in L363 (NIK translocated multiple myeloma) cells; test: Effect of compounds on p-IKKa levels in L363 (NIK translocated multiple myeloma) cells (AlphaLISA SureFire Ultra p-IKKa Ser176/180); assay type: cell-based, human; conditions: read-out: Assay 2 IC50, average if tested more than once
Method: Assay 2: Effect of Compounds on p-IKKa Levels in L363 (NIK Translocated Multiple Myeloma) Cells
All compounds tested were dissolved and serially diluted in DMSO, 1:3 dilution for 11 points in an Echo compatible plate. 100% DMSO was added to columns 12 and 24 of the plate to serve as high and low signal controls. This compound plate was used to spot 20 nL of compound or DMSO into a Greiner 384 well TC plate (781080). The final DMSO concentration was 0.3% (v/v) in cell assays. Human L363 cells (ATCC) were cultured in RPM11640 medium supplemented with GlutaMax, non-essential amino acids, sodium pyruvate and 10% fetal bovine serum. Cells were routinely maintained at densities of 0.2×10^6 cells per ml-2×10^6 cells per mL at 37° C. in a humidified 5% CO2 atmosphere incubator. […] At the end of this incubation, lysed cells were sequentially treated and incubated with acceptor and donor bead mixes according to the manufacturer's protocol for a 1 plate/2-incubation suspension cell assay (AlphaLISA SureFire Ultra p-IKKa (Ser 176/180) Assay Kit (Perkin Elmer). Plates were read using an EnVision Multilabel Plate Reader (Perkin Elmer). Within an experiment, a concentration response curve for each compound was run in duplicate. The signal obtained in the test wells was normalized using high signal (BAFF stimulated cells, DMSO, MG132) and low signal (unstimulated cells, DMSO) controls. […]

[2] = biological target: Recombinant Human NF-kappaB-Inducing Kinase (NIK/MAP3K14) (Homo sapiens, UniProt Q99558); test: Inhibition of auto-phosphorylation of recombinant human NIK/MAP3K14 activity (AlphaScreen); conditions: read-out: Assay 1 IC50, 5 μM ATP, 1 nM NIK, average if tested more than once
Method: Assay 1: Inhibition of Auto-Phosphorylation of Recombinant Human NF-kappaB-Inducing Kinase (NIK/MAP3K14) Activity (AlphaScreen™)
NIK/MAP3K14 auto-phosphorylation activity was measured using the AlphaScreen™ (αscreen) format (Perkin Elmer). All compounds tested were dissolved in dimethyl sulfoxide (DMSO) and further dilutions were made in assay buffer. The final DMSO concentration was 0.7% (v/v) in assays. The assay buffer was 50 mM Tris pH 7.5 containing 1 mM EGTA (ethylene glycol tetraacetic acid), 1 mM DTT (dithiothreitol), 0.1 mM Na3VO4, 5 mM MgCl2, and 0.01% Tween®20. The assays were carried out in 384 well Proxiplates (Perkin Elmer). The incubations consisted of the compound, 5 μM Adenosine-5′-triphosphate (ATP), and 1 nM NIK/MAP3K14. Incubations were initiated by the addition of GST-tagged NIK/MAP3K14 enzyme, carried out for 2 h at 25° C. and terminated by addition of stop buffer containing anti-phospho-IKK Ser176/180 antibody. Protein A Acceptor and Glutathione-Donor beads were added before reading using an EnVision Multilabel Plate Reader (Perkin Elmer). The signal obtained in the wells was normalized using high (full enzyme activity, 0.7% DMSO) and low controls (no enzyme activity, 0.7% DMSO, no ATP). IC50's were determined by fitting a sigmoidal curve to % inhibition of control versus Log10 compound concentration.

For CN1CC[C@@](O)(c2cccc(-c3nc(-c4ccnc(N[C@@H]5CCC[C@@H]5O)n4)cs3)c2)C1=O, the pIC50 [1] was less than 6.30 and the pIC50 [2] was 6.30 to 7.00.
